Assay results as given in publication PMC4284768, “The Study of NADPH-Dependent Flavoenzyme-Catalyzed Reduction of Benzo[1,2-c]1,2,5-oxadiazole N-Oxides (Benzofuroxans)” (2014).
Read-outs that look alike come from different tables or passages of the source.

The chains behind the UniProt entries cited, without tags or fusion partners. Where a name states a change or a piece, a line headed by the entry shows the natural chain unless it says otherwise. Residues count along the entry.
UniProt P05982, 2-274 limits assumed: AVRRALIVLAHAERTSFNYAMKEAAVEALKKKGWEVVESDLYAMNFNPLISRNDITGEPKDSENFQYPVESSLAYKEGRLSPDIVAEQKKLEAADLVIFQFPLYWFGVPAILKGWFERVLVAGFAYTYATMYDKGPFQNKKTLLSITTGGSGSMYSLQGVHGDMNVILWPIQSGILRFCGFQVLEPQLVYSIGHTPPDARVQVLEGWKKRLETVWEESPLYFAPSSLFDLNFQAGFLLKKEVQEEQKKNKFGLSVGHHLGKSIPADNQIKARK
UniProt P00388: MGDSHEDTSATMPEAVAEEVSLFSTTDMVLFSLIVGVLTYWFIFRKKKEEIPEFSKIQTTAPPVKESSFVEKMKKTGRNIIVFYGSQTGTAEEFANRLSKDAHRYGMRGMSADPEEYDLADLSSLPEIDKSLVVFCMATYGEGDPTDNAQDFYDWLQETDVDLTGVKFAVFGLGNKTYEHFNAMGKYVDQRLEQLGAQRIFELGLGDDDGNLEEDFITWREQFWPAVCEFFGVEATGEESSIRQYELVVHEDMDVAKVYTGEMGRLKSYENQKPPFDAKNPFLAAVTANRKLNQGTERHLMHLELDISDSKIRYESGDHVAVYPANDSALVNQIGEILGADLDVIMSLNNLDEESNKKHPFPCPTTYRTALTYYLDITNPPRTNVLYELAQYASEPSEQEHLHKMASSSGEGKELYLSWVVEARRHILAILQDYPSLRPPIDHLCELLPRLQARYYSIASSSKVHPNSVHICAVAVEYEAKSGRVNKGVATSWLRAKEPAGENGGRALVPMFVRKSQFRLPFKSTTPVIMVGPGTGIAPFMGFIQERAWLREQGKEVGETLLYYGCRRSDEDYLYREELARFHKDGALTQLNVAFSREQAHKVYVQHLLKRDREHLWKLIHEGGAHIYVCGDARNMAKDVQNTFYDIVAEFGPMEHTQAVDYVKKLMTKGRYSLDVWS

Columns and labels:
[1] = target: T1, NAD(P)H:quinone oxidoreductase (NQO1) (Rattus norvegicus, UniProt P05982); assay: Steady-state kinetics of reduction by NAD(P)H:quinone oxidoreductase (NADPH oxidation); conditions: for kcat, catalytic constant of reduction by NQO1: pH 7.0, 25 °C, NADPH 150 µM; for kcat of NQO1-catalyzed reduction (Table 5): BFXs
[2] = target: T1, NAD(P)H:quinone oxidoreductase (NQO1); assay: Inhibition of NQO1 quinone reductase reaction (menadione-mediated reduction of cytochrome c); conditions: BFXs, 4 µM menadione, 50 µM cytochrome c; for Ki: read-out: Ki, inhibition constant of NQO1, competitive with respect to NADPH
[3] = target: T1, NAD(P)H:quinone oxidoreductase (NQO1); assay: Redox-cycling test: O2 uptake, cytochrome c reduction and oxidation of excess NADPH during NQO1-catalyzed reduction; conditions: for O2 uptake accompanying reduction by NQO1: compared with NADPH oxidation rate and intrinsic NADPH-oxidase activity of NQO1 (0.05 ± 0.02 s^−1)
[4] = target: T1, NAD(P)H:quinone oxidoreductase (NQO1); conditions: cited from earlier work
[5] = target: T1, NAD(P)H:quinone oxidoreductase (NQO1); conditions: cited from earlier work; remark: listed apart in the source
[6] = target: T2, NADPH:cytochrome P-450 reductase (P-450R) (Rattus norvegicus, UniProt P00388); assay: LC-MS identification of P-450R-catalyzed reduction product
[7] = target: T2, NADPH:cytochrome P-450 reductase (P-450R); assay: Redox-cycling test: O2 uptake during P-450R-catalyzed reduction; conditions: compared with NADPH oxidation rate and intrinsic NADPH-oxidase activity (0.11 ± 0.02 s^−1)
[8] = target: T1, NAD(P)H:quinone oxidoreductase (NQO1); assay: LC-MS identification of NQO1-catalyzed reduction product
[9] = target: T1, NAD(P)H:quinone oxidoreductase (NQO1); assay: Temperature dependence of NQO1-catalyzed reduction (Eyring plots, activation parameters); conditions: BFXs, seven temperatures 15-45 °C
[10] = target: T1, NAD(P)H:quinone oxidoreductase (NQO1); conditions: read-out: Ki, inhibition constant of NQO1; NACs; ref [20]; cited from earlier work
[11] = experimental; ref [16],[24]; cited from earlier work
[12] = test system: NQO1 (oxidized enzyme form); conditions: read-out: Kd of complex between oxidized NQO1 and NADPH; assumed from transient kinetics; ref [36]; cited from earlier work

Cc1cc2no[n+]([O-])c2cc1C
kcat, catalytic constant of reduction by NQO1 [1]: 1.8 ± 0.2 s⁻¹ | Ki [2]: 29.3 µM

O=c1oc2ccccc2c(O)c1Cc1c(O)c2ccccc2oc1=O
effect on NQO1-catalyzed reduction of BFXs ([1]; 1 μM inhibitor): inhibited

[O-][n+]1onc2c1ccc1no[n+]([O-])c12
O2 uptake accompanying reduction by NQO1 [3]: exhaustion of excess amount of O2 was observed | kcat, catalytic constant of reduction by NQO1 [1]: 2.3 ± 0.4 s⁻¹ | εmax, maximal degree of inhibition of NQO1 [2]: 100% | Ki [2]: 41.5 µM

2-Hydroxy-1,4-nathphoquinone
∆H^≠, activation enthalpy of NQO1-catalyzed reduction ([4]; quinones, ref [37]): 2.414 ± 0.801 kcal/mol | ∆S^≠, activation entropy of NQO1-catalyzed reduction ([4]; quinones, ref [37]): −84.43 ± 8.30 eu | kcat of NQO1-catalyzed reduction (Table 5) ([5]; quinones, ref [37]): 232 ± 25 s⁻¹

O/N=C1\C=CC=C\C1=N/O
reduction product identified by LC-MS [6]: formation of PHADA | rate of reduction of cytochrome c as share of NADPH oxidation rate ([3]; NQO1, cytochrome c 50 μM): 30%–35% | O2 uptake accompanying reduction by NQO1 [3]: slow O2 uptake | direct reduction of cytochrome c in the absence of NQO1 ([3]; control without enzyme): did not occur | O2 uptake accompanying reduction by P-450R [7]: slow O2 uptake | reduction product identified by LC-MS [8]: formation of PHADA

[O-][n+]1onc2ccccc21
∆H^≠, activation enthalpy of NQO1-catalyzed reduction [9]: 7.278 ± 1.54 kcal/mol | ∆S^≠, activation entropy of NQO1-catalyzed reduction [9]: −42.52 ± 8.30 eu | reduction product identified by LC-MS [6]: 2,3-diaminophenazine | kcat of NQO1-catalyzed reduction (Table 5) [1]: 11.0 ± 1.5 s⁻¹ | kcat, catalytic constant of reduction by NQO1 [1]: 11.0 ± 1.5 s⁻¹ | Ki [2]: 20.3 µM | reduction product identified by LC-MS [8]: 2,3-diaminophenazine (PHADA)

[O-][n+]1onc2cc(C(F)(F)F)ccc21
kcat, catalytic constant of reduction by NQO1 [1]: 7.6 ± 0.9 s⁻¹ | Ki [2]: 49 µM

Cc1ccc2c(c1)no[n+]2[O-]
kcat, catalytic constant of reduction by NQO1 [1]: 2.4 ± 0.4 s⁻¹ | Ki [2]: 25.7 µM

[O-][n+]1onc2cc3c(cc21)OCO3
kcat, catalytic constant of reduction by NQO1 [1]: 1.2 ± 0.4 s⁻¹ | Ki [2]: 110 µM

O=[N+]([O-])c1ccccc1
Ki [10]: 900 µM | E^1_7, single-electron reduction potential [11]: −0.485 V | kcat, catalytic constant of reduction by NQO1 [1]: <0.1 s⁻¹

O=[N+]([O-])c1ccc([N+](=O)[O-])cc1
∆H^≠, activation enthalpy of NQO1-catalyzed reduction ([4]; nitroaromatic, ref [23]): 12.09 ± 2.464 kcal/mol | ∆S^≠, activation entropy of NQO1-catalyzed reduction ([4]; nitroaromatic, ref [23]): −8.81 ± 2.25 eu | Ki [10]: 200 µM | E^1_7, single-electron reduction potential [11]: −0.257 V | kcat of NQO1-catalyzed reduction (Table 5) ([5]; nitroaromatic, ref [23]): 0.6 ± 0.1 s⁻¹ | kcat, catalytic constant of reduction by NQO1 [1]: 0.6 ± 0.1 s⁻¹

[O-][n+]1onc2cc(Cl)c(Cl)cc21
∆H^≠, activation enthalpy of NQO1-catalyzed reduction [9]: 7.378 ± 0.406 kcal/mol | ∆S^≠, activation entropy of NQO1-catalyzed reduction [9]: −46.06 ± 5.72 eu | kcat of NQO1-catalyzed reduction (Table 5) [1]: 6.9 ± 0.1 s⁻¹ | kcat, catalytic constant of reduction by NQO1 [1]: 6.9 ± 0.1 s⁻¹ | Ki [2]: 22.1 µM

O=[N+]([O-])c1ccccc1[N+](=O)[O-]
E^1_7, single-electron reduction potential [11]: −0.287 V | kcat, catalytic constant of reduction by NQO1 [1]: <0.1 s⁻¹

NADPH
Kd [12]: > 500 µM | Km ([1]; read-out: apparent Km(NADPH), predicted as kcat/(kcat/Km(NADPH)) for more reactive BFXs): < 1 µM

COc1cc2no[n+]([O-])c2cc1OC
kcat, catalytic constant of reduction by NQO1 [1]: 1.1 ± 0.1 s⁻¹ | Ki [2]: 55.3 µM

[O-][n+]1onc2cc3c(cc21)OCCO3
kcat, catalytic constant of reduction by NQO1 [1]: 0.7 ± 0.1 s⁻¹ | Ki [2]: 112 µM

CC1=C(C)C(=O)C(C)=C(C)C1=O
∆H^≠, activation enthalpy of NQO1-catalyzed reduction ([4]; quinones, ref [37]): 1.06 ± 0.251 kcal/mol | ∆S^≠, activation entropy of NQO1-catalyzed reduction ([4]; quinones, ref [37]): −76.09 ± 3.44 eu | kcat of NQO1-catalyzed reduction (Table 5) ([5]; quinones, ref [37]): 1000 ± 90 s⁻¹

[O-][n+]1onc2cc(Cl)ccc21
equivalents of NADPH oxidized in the first (fast) phase ([3]; NQO1, 500 µM NADPH, 50 µM compound, monitored at 305 nm): approximately three equivalents of NADPH were oxidized in the first (fast) phase | O2 uptake accompanying reduction by NQO1 [3]: slow O2 uptake | kcat, catalytic constant of reduction by NQO1 [1]: 5.6 ± 0.6 s⁻¹ | Ki [2]: 33.8 µM

COc1ccc2c(c1)no[n+]2[O-]
kcat, catalytic constant of reduction by NQO1 [1]: 4.4 ± 0.1 s⁻¹ | Ki [2]: 32.9 µM
